Where two headings read alike, the source gives them in different places.

This experiment concerns the target BRD4 (Homo sapiens (Human), UniProt O60885). The experiment is described as follows: HTRF biochemical assay for BRD4 activity.
Setting [1] is: read-out: BRD4 IC50 (μM gmean), HTRF TR-FRET.
[2] abbreviates: read-out: BRD4 IC50 (μM gmean), HTRF (TR-FRET) biochemical assay.

In the case of `COC(=O)N1c2ccc3c(nc(Cc4ccc(Cl)cc4)n3[C@@H]3CCC[C@@H](C(=O)O)C3)c2CC[C@@H]1C`, the IC50 under setting [1] fell in the range of 1 to 1000 µM. The same measure, in the same setting: as for `COC(=O)N1c2ccc3c(nc(Cc4cncc(OC(F)F)c4)n3[C@@H]3CCC[C@@H](C(=O)O)C3)c2CC[C@@H]1C`, the figure is 1 to 1000 µM. Turning to `COC(=O)N1c2ccc3c(nc(Cn4cccn4)n3CCN3CCOCC3)c2CC[C@@H]1C`, under setting [2], the IC50 is 1 to 1000 µM.

As to `COC(=O)N1c2ccc3c(nc(C(O)c4cc5ccoc5cn4)n3C3CCCC(C(=O)O)C3)c2CC[C@@H]1C` (some centres unmarked), the IC50 under setting [1] lay within 0.1 to 1 µM. For `COC(=O)N1c2ccc3c(nc(N(C)c4ccc(OC)cc4)n3[C@H]3CC[C@H](C(=O)O)CC3)c2CC[C@@H]1C`, under setting [1], the IC50 lay within 0.1 to 1 µM.

Consider `COC(=O)N1c2ccc3c(nc(Nc4ccc(F)c(F)c4)n3[C@@H]3CCC[C@@H](C(=O)O)C3)c2CC[C@@H]1C`, for which, for the setting “read-out: BRD4 IC50 (μM gmean)”, the IC50 lay within 0.1 to 1 µM. With `COC(=O)N1c2ccc3c(nc(Cn4ccccc4=O)n3CCN3CCOCC3)c2CC[C@@H]1C`, the IC50 under setting [2] was in the range of 1 to 1000 µM. `COC(=O)N1c2ccc3c(nc(N(C)c4cccc(F)c4)n3[C@@H]3CCC[C@@H](C(=O)O)C3)c2CC[C@@H]1C`: the IC50 under setting [1] fell in the range of 0.1 to 1 µM. As to `COC(=O)N1c2ccc3c(nc(Nc4ccn(CC(C)(C)O)n4)n3[C@H]3CC[C@H](C(=O)O)CC3)c2CC[C@@H]1C`, the IC50 (read-out: BRD4 IC50 (μM gmean)) is 1 to 1000 µM. Still for that read-out and setting: for `COC(=O)N1c2ccc3c(nc(Nc4cccc(F)c4)n3[C@H]3CC[C@H](C(=O)O)CC3)c2CC[C@@H]1C` the value was 0.1 to 1 µM.

As for `COC(=O)N1c2ccc3c(nc(Cc4cc(F)c(OC)c(F)c4)n3[C@H]3CC[C@H](C(=O)O)CC3)c2CC[C@@H]1C`, the IC50 under setting [1] fell in the range of 1 to 1000 µM.
